{"source": "PubChem BioAssay (NCI)", "test_in_all_cases": "NCI tumour cell line growth inhibition, 48 h", "key": {"NCI-H460 lung": {"tested_on": "NCI-H460 lung"}, "SK-MEL-2 melanoma": {"tested_on": "SK-MEL-2 melanoma"}, "CCRF-CEM leukemia": {"tested_on": "CCRF-CEM leukemia"}, "SK-OV-3 ovarian": {"tested_on": "SK-OV-3 ovarian"}, "NCI-H522 lung": {"tested_on": "NCI-H522 lung"}, "NCI/ADR-RES ovarian": {"tested_on": "NCI/ADR-RES ovarian"}, "LOX IMVI melanoma": {"tested_on": "LOX IMVI melanoma"}, "SNB-19 CNS": {"tested_on": "SNB-19 CNS"}, "OVCAR-3 ovarian": {"tested_on": "OVCAR-3 ovarian"}, "CAKI-1 renal": {"tested_on": "CAKI-1 renal"}, "A549 NSCLC": {"tested_on": "A549 NSCLC"}, "SW-620 colon": {"tested_on": "SW-620 colon"}, "UO-31 renal": {"tested_on": "UO-31 renal"}, "COLO 205 colon": {"tested_on": "COLO 205 colon"}, "HCC-2998 colon": {"tested_on": "HCC-2998 colon"}, "UACC-257 melanoma": {"tested_on": "UACC-257 melanoma"}, "786-0 renal": {"tested_on": "786-0 renal"}, "TK-10 renal": {"tested_on": "TK-10 renal"}, "SK-MEL-5 melanoma": {"tested_on": "SK-MEL-5 melanoma"}, "SF-539 CNS": {"tested_on": "SF-539 CNS"}, "EKVX NSCLC": {"tested_on": "EKVX NSCLC"}, "HL-60(TB) leukemia": {"tested_on": "HL-60(TB) leukemia"}, "ACHN renal": {"tested_on": "ACHN renal"}, "SK-MEL-28 melanoma": {"tested_on": "SK-MEL-28 melanoma"}, "T-47D breast": {"tested_on": "T-47D breast"}, "HS 578T breast": {"tested_on": "HS 578T breast"}, "OVCAR-4 ovarian": {"tested_on": "OVCAR-4 ovarian"}, "SN12C renal": {"tested_on": "SN12C renal"}, "MOLT-4 leukemia": {"tested_on": "MOLT-4 leukemia"}, "RPMI-8226 leukemia": {"tested_on": "RPMI-8226 leukemia"}, "HT29 colon": {"tested_on": "HT29 colon"}, "PC-3 prostate": {"tested_on": "PC-3 prostate"}, "DU-145 prostate": {"tested_on": "DU-145 prostate"}, "M14 melanoma": {"tested_on": "M14 melanoma"}, "HOP-62 NSCLC": {"tested_on": "HOP-62 NSCLC"}, "SF-268 CNS": {"tested_on": "SF-268 CNS"}, "MDA-MB-435": {"tested_on": "MDA-MB-435"}, "SR leukemia": {"tested_on": "SR leukemia"}, "OVCAR-5 ovarian": {"tested_on": "OVCAR-5 ovarian"}, "BT-549 breast": {"tested_on": "BT-549 breast"}, "K-562 leukemia": {"tested_on": "K-562 leukemia"}, "SF-295 CNS": {"tested_on": "SF-295 CNS"}, "HCT-15 colon": {"tested_on": "HCT-15 colon"}, "MDA-N": {"tested_on": "MDA-N"}, "MCF7 breast": {"tested_on": "MCF7 breast"}, "MDA-MB-231 breast": {"tested_on": "MDA-MB-231 breast"}, "KM12 colon": {"tested_on": "KM12 colon"}, "NCI-H23 lung": {"tested_on": "NCI-H23 lung"}, "NCI-H226 lung": {"tested_on": "NCI-H226 lung"}, "HCT-116 colon": {"tested_on": "HCT-116 colon"}, "RXF 393 renal": {"tested_on": "RXF 393 renal"}, "HOP-92 NSCLC": {"tested_on": "HOP-92 NSCLC"}, "MALME-3M melanoma": {"tested_on": "MALME-3M melanoma"}, "OVCAR-8 ovarian": {"tested_on": "OVCAR-8 ovarian"}, "A498 renal": {"tested_on": "A498 renal"}, "SNB-75 CNS": {"tested_on": "SNB-75 CNS"}, "U251 CNS": {"tested_on": "U251 CNS"}, "NCI-H322M lung": {"tested_on": "NCI-H322M lung"}, "UACC-62 melanoma": {"tested_on": "UACC-62 melanoma"}}, "note": "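1) Cells in 96-well plates. 2) Compound, 48 h, 5 concentrations. 3) Linear interpolation between surrounding doses. 4) Unreached endpoint = highest concentration. TGI marks complete inhibition of growth.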"}
{"smiles": "CN(C(=O)CSc1ccc2ccccc2c1)[C@H]1CCCC[C@H]1N1CCCC1", "values": [{"measurement": "TGI", "setting": "NCI-H460 lung", "value": 45.8, "unit": "µM"}, {"measurement": "TGI", "setting": "SK-MEL-2 melanoma", "value": 39.3, "unit": "µM"}, {"measurement": "TGI", "setting": "CCRF-CEM leukemia", "value": 55, "unit": "µM"}, {"measurement": "TGI", "setting": "SK-OV-3 ovarian", "value": "> 100", "unit": "µM"}, {"measurement": "TGI", "setting": "NCI-H522 lung", "value": 41, "unit": "µM"}, {"measurement": "TGI", "setting": "NCI/ADR-RES ovarian", "value": "> 100", "unit": "µM"}, {"measurement": "TGI", "setting": "LOX IMVI melanoma", "value": 30.7, "unit": "µM"}, {"measurement": "TGI", "setting": "SNB-19 CNS", "value": "> 100", "unit": "µM"}, {"measurement": "TGI", "setting": "OVCAR-3 ovarian", "value": "> 100", "unit": "µM"}, {"measurement": "TGI", "setting": "CAKI-1 renal", "value": "> 100", "unit": "µM"}, {"measurement": "TGI", "setting": "A549 NSCLC", "value": "> 100", "unit": "µM"}, {"measurement": "TGI", "setting": "SW-620 colon", "value": "> 100", "unit": "µM"}, {"measurement": "TGI", "setting": "UO-31 renal", "value": 75.6, "unit": "µM"}, {"measurement": "TGI", "setting": "COLO 205 colon", "value": 32.9, "unit": "µM"}, {"measurement": "TGI", "setting": "HCC-2998 colon", "value": 31.9, "unit": "µM"}, {"measurement": "TGI", "setting": "UACC-257 melanoma", "value": 38.7, "unit": "µM"}, {"measurement": "TGI", "setting": "786-0 renal", "value": 32.8, "unit": "µM"}, {"measurement": "TGI", "setting": "TK-10 renal", "value": 60.4, "unit": "µM"}, {"measurement": "TGI", "setting": "SK-MEL-5 melanoma", "value": 29.9, "unit": "µM"}, {"measurement": "TGI", "setting": "SF-539 CNS", "value": 30.9, "unit": "µM"}, {"measurement": "TGI", "setting": "EKVX NSCLC", "value": "> 100", "unit": "µM"}, {"measurement": "TGI", "setting": "HL-60(TB) leukemia", "value": 42.3, "unit": "µM"}, {"measurement": "TGI", "setting": "ACHN renal", "value": "> 100", "unit": "µM"}, {"measurement": "TGI", "setting": "SK-MEL-28 melanoma", "value": "> 100", "unit": "µM"}, {"measurement": "TGI", "setting": "T-47D breast", "value": "> 100", "unit": "µM"}, {"measurement": "TGI", "setting": "HS 578T breast", "value": 82.8, "unit": "µM"}, {"measurement": "TGI", "setting": "OVCAR-4 ovarian", "value": "> 100", "unit": "µM"}, {"measurement": "TGI", "setting": "SN12C renal", "value": "> 100", "unit": "µM"}, {"measurement": "TGI", "setting": "MOLT-4 leukemia", "value": 82, "unit": "µM"}, {"measurement": "TGI", "setting": "RPMI-8226 leukemia", "value": 51.9, "unit": "µM"}, {"measurement": "TGI", "setting": "HT29 colon", "value": 32.7, "unit": "µM"}, {"measurement": "TGI", "setting": "PC-3 prostate", "value": 91, "unit": "µM"}, {"measurement": "TGI", "setting": "DU-145 prostate", "value": "> 100", "unit": "µM"}, {"measurement": "TGI", "setting": "M14 melanoma", "value": 29.2, "unit": "µM"}, {"measurement": "TGI", "setting": "HOP-62 NSCLC", "value": "> 100", "unit": "µM"}, {"measurement": "TGI", "setting": "SF-268 CNS", "value": "> 100", "unit": "µM"}, {"measurement": "TGI", "setting": "MDA-MB-435", "value": 75, "unit": "µM"}, {"measurement": "TGI", "setting": "SR leukemia", "value": 48.8, "unit": "µM"}, {"measurement": "TGI", "setting": "OVCAR-5 ovarian", "value": 56.7, "unit": "µM"}, {"measurement": "TGI", "setting": "BT-549 breast", "value": 58.6, "unit": "µM"}, {"measurement": "TGI", "setting": "K-562 leukemia", "value": 45.4, "unit": "µM"}, {"measurement": "TGI", "setting": "SF-295 CNS", "value": 52.6, "unit": "µM"}, {"measurement": "TGI", "setting": "HCT-15 colon", "value": "> 100", "unit": "µM"}, {"measurement": "TGI", "setting": "MDA-N", "value": 54.2, "unit": "µM"}, {"measurement": "TGI", "setting": "MCF7 breast", "value": "> 100", "unit": "µM"}, {"measurement": "TGI", "setting": "MDA-MB-231 breast", "value": 58.9, "unit": "µM"}, {"measurement": "TGI", "setting": "KM12 colon", "value": "> 100", "unit": "µM"}, {"measurement": "TGI", "setting": "NCI-H23 lung", "value": "> 100", "unit": "µM"}, {"measurement": "TGI", "setting": "NCI-H226 lung", "value": 33.3, "unit": "µM"}, {"measurement": "TGI", "setting": "HCT-116 colon", "value": "> 100", "unit": "µM"}, {"measurement": "TGI", "setting": "RXF 393 renal", "value": "> 100", "unit": "µM"}, {"measurement": "TGI", "setting": "HOP-92 NSCLC", "value": "> 100", "unit": "µM"}, {"measurement": "TGI", "setting": "MALME-3M melanoma", "value": 29.1, "unit": "µM"}, {"measurement": "TGI", "setting": "OVCAR-8 ovarian", "value": "> 100", "unit": "µM"}, {"measurement": "TGI", "setting": "A498 renal", "value": 33.5, "unit": "µM"}, {"measurement": "TGI", "setting": "SNB-75 CNS", "value": "> 100", "unit": "µM"}, {"measurement": "TGI", "setting": "U251 CNS", "value": "> 100", "unit": "µM"}, {"measurement": "TGI", "setting": "NCI-H322M lung", "value": "> 100", "unit": "µM"}, {"measurement": "TGI", "setting": "UACC-62 melanoma", "value": 50.4, "unit": "µM"}]}
